# Read-outs that look alike come from different tables or passages of the source.
# Assays:
# Gβ1γ2 [1] = target: T1, Gβ1γ2 (UniProt P54311+P63212); settings: read-out: IC50 ELISA; Table 20, competition ELISA for SIGK binding; data from Bonacci et al. (2006); cited from earlier work
# [2] = test system: ERK1 and ERK2 activation in differentiated HL60 cells; settings: 10 μM compound, 1 μM fMLP, result in words
# PLCβ2 = assay: Gβ1γ2-dependent activation of purified PLCβ2; settings: for effect on Gβ1γ2-dependent activation of PLCβ2: result in words
# PLCβ3 = assay: Gβ1γ2-dependent activation of purified PLCβ3
# PI3Kγ = settings: read-out: IC50 for inhibition of Gβγ-dependent PI3Kγ regulation
# Gβ1γ2 [3] = target: T1, Gβ1γ2; assay: Competition phage ELISA: inhibition of SIGK-phage binding to immobilized biotinylated Gβ1γ2; design: species or system rat
# [4] = test system: fMLP-dependent Ca2+ release in differentiated HL60 cells; assay: fMLP-dependent Ca2+ release in fura-2 loaded DMSO-differentiated HL60 cells; settings: 10 μM compound, 250 nM fMLP; result in words
# [5] = test system: GFP-PHAkt translocation (PI3Kγ activation) in HL60 cells; assay: fMLP-dependent GFP-PH-Akt translocation in differentiated HL60 cells; settings: 10 μM compound; result in words
# [6] = read-out: IC50 μM, Table 18, compounds identified in Elisa screen
IC50 (Gβ1γ2 [3]; Table 8),IC50 (Gβ1γ2 [3]; [6]),SMILES,IC50 (Gβ1γ2 [1]),effect on fMLP-induced activation of ERK1 and ERK2 [2],effect on Gβ1γ2-dependent activation of PLCβ2 (PLCβ2),other results
,,"O=C(O)/C=C/c1c2ccc(=O)c(O)c-2oc2c(O)c(O)ccc12 [(E)-3-(4,5,6-trihydroxy-3-oxo-3H-xanthen-9-yl)acrylic acid]",200 nM,do not interfere,appeared to block PLC-β2 activation more effectively than PLC-β3 activation,
2 µM,2 µM,Ic1ccc2c(c1)N(c1ccccc1)c1cc(Nc3ccc4nc5ccc(I)cc5[n+](-c5ccccc5)c4c3)ccc1N2,,,does not affect,"PLCb3 (PLCβ3; Table 19, effector IC50): NE; effect on Gβ1γ2-dependent activation of PLCβ3 (PLCβ3; result in words): does not affect; IC50 (PI3Kγ): 12 µM; IC50 (Gβ1γ2 [3]; read-out: ELISA, Table 19): 2 µM; IC50 (Gβ1γ2 [3]; read-out: IC50 in phage ELISA (SIGK competition)): 2 µM; PLCb2 (PLCβ2; Table 19, effector IC50): NE"
,,"CC1C2C=CC1C(c1c3ccc(=O)c(O)c-3oc3c(O)c(O)ccc13)C2C(=O)O (single isomer, unassigned)",700 nM,,,
0.1 µM,0.1 µM,CCc1cc2c(c3ccc(C(=O)CBr)cc13)CCCC2,,,,
,,O=C(O)C1CC23C(Cl)C(Cl)C(Cl)C(Cl)C2(CC1c1c2ccc(=O)c(O)c-2oc2c(O)c(O)ccc12)C3(Cl)Cl (centres unmarked),250 nM,did not block,,effect on fMLP-induced Ca^2+ increase [4]: attenuated; effect on fMLP-dependent translocation of GFP-PHAkt to the membrane [5]: inhibited; effect on fMLP-induced activation of ERK1 and ERK2 ([2]; listed as NSC158110): do not interfere
